In patent US8034928B2, “Fluorescence assays with improved sensitivity” (Wisconsin Alumni Research Foundation, priority 2003, dated 2011):

System: HeLa cell extract

N,N-diacetylated rhodamine 110
stability of amide groups: stable
